Only a part is listed here, and it is no random draw. Results filed as inconclusive are left out. The source made the active and inactive calls. Rule for the calls, unless noted: active = hit-call score of the fitted dose curve at least 0.9, where 1 is the maximum; inconclusive = response in the unintended direction; inactive = score below 0.9.
Tests used:
[1] = ACEA_AR_antagonist_AUC_viability: ACEA Biosciences xCELLigence Real-Time Cell Analysis on Androgen Receptor Antagonism for Viability (AID 2283776);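 note: 22Rv1 human prostate cancer cells growing on impedance electrode plates; area under impedance growth curve at 80 h after dosing as viability; hits lower the growth signal relative to DMSO meaning cytotoxicity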
Procedure, shortened: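 Viability endpoint from label-free cell-index monitoring: 22Rv1 cultures treated with an eight-point 1:4 dilution series starting at 100 uM final, AUC at 80 h fitted against DMSO.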

Amino acid sequences for entries named in this document (tags omitted).
UniProt P10275, whole entry: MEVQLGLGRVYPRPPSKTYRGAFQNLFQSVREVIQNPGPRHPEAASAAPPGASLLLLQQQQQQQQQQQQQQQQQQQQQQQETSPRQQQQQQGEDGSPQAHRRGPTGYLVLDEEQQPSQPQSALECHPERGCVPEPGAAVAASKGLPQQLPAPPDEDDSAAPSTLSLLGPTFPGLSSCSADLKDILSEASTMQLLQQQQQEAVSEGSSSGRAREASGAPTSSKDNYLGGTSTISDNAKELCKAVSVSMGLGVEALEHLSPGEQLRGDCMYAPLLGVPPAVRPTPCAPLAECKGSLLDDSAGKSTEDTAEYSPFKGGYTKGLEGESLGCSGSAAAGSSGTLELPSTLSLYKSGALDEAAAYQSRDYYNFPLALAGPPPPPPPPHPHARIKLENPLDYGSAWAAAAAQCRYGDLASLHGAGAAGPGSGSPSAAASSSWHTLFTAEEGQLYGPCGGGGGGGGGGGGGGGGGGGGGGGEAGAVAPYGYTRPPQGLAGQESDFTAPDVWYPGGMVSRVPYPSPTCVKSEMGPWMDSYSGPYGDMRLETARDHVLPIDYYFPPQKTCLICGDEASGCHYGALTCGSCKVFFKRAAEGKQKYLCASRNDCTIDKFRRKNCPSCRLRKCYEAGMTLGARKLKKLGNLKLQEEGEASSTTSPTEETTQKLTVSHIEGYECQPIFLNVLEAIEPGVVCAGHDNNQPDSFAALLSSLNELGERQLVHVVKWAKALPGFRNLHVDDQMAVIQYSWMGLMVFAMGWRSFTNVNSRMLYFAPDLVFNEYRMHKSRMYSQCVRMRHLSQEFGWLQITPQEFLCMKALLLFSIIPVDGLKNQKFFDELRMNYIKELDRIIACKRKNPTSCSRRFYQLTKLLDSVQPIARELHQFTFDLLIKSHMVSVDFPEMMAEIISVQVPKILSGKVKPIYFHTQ

[2] = CCTE_Harrill_HTTr_Apoptosis_MCF7: CCTE's 6-hour Apoptosis Assessment for the High-Throughput Transcriptomics (HTTr) Platform, in MCF-7 cells cultured in DMEM + 10% fetal bovine serum, Harrill Lab (AID 2284011; active = hit-call score of the fitted dose curve at least 0.9, where 1 is the maximum; inactive = score below 0.9)
Procedure, shortened: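 Apoptosis in MCF-7 cells grown in DMEM with 10% fetal bovine serum was scored after a six hour exposure by high content imaging of caspase-3/7 activation (CellEvent Caspase 3/7 Green), with DMSO serving as negative control and baseline.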

[3] = ACEA_ER_AUC_viability: ACEA Biosciences xCELLigence Real-Time Cell Analysis on Estrogen Receptor Agonism for Viability (AID 2283782);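 note: continuous compound exposure with impedance area under curve over 80 h; hit means loss of impedance signal meaning reduced cell growth or viability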
Procedure, shortened: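 T-47D; phenol red-free RPMI1640 + 10% CS-FBS; 8 conc., 1:4 serial, max 100 uM final, ≤0.5% DMSO; n = 2; continuous exposure; impedance monitored to 80 h post-dose; AUC vs DMSO.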

[4] = CCTE_Harrill_HTTr_CellCount_MCF7: CCTE's Cell Proliferation Assessment for the High-Throughput Transcriptomics (HTTr) Platform, Harrill Lab (AID 2284012);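 note: count of Hoechst-stained nuclei per well by high-content imaging in MCF-7 cells; cells exposed to compound for six hours; intended direction is loss of nuclei count meaning fewer cells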
Procedure, shortened: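 Nuclei counting (Hoechst, high content imaging) in MCF-7 after a 6 h treatment at eight concentrations. Activity fitted bidirectionally, DMSO as negative control.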

[5] = STM_H9_NormalizedViability: Cytotoxicity Assessment at 120 hours in the Stemina devTOX quickPredict H9 human embryonic stem cell (hESC)-based Assay (AID 2283784)
Procedure, shortened: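 Chemicals are tested blinded on H9 human embryonic stem cells in the pluripotent state, with medium exchanged daily. After background correction, fluorescence from CellTiter-Fluor is scaled against 0.1% DMSO wells, and decreases are scored.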

[6] = target: Nucleoli Translocation, AR (gene 367) (UniProt P10275); experiment: UPITT_HCI_U2OS_AR_TIF2_Nucleoli_Antagonist: University of Pittsburgh U2OS Androgen Receptor-Transcriptional Intermediary Factor 2 (AR-TIF2) Antagonism High Content Imaging Assay for Nucleoli Translocation (AID 2283997)
Procedure, shortened: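 Measured quantity was AR-RFP fluorescence localized to nucleoli in engineered U2OS cells also bearing TIF2-GFP, acquired on automated high-content imagers. Primary testing used 20 uM compound; actives were confirmed in triplicate wells.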

[7] = target: Ratio of Nucleoli Translocation and Cytoplasm, AR (gene 367) (UniProt P10275); experiment: UPITT_HCI_U2OS_AR_TIF2_Nucleoli_Cytoplasm_Ratio_Antagonist: University of Pittsburgh U2OS Androgen Receptor-Transcriptional Intermediary Factor 2 (AR-TIF2) Antagonism High Content Imaging Assay for Ratio of Nucleoli Translocation and Cytoplasm (AID 2283999);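 note: antagonists lower the DHT-driven ratio of nucleolar to cytoplasmic red signal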
Procedure, shortened: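 High-content imaging quantifies the red nucleolar:cytoplasmic fluorescence ratio in U2OS cells with AR-RFP and TIF2-GFP. Final concentrations are 20 uM (screen) or 0.195–50 uM (dose response), analysed against DHT as baseline.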

[8] = target: Ratio of Nucleoli Translocation and Cytoplasm, AR (gene 367) (UniProt P10275); experiment: UPITT_HCI_U2OS_AR_TIF2_Nucleoli_Cytoplasm_Ratio_Agonist: University of Pittsburgh U2OS Androgen Receptor-Transcriptional Intermediary Factor 2 (AR-TIF2) Agonism High Content Imaging Assay for Ratio of Nucleoli Translocation and Cytoplasm (AID 2284000);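 note: hits raise the red nucleolar to cytoplasm ratio above vehicle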
Procedure, shortened: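 Read-out first: nucleolar-to-cytoplasm ratio of red (AR-RFP) signal, quantified by high-content imaging in U2OS cells co-expressing TIF2-GFP. Activity is scored as signal increase over DMSO. Single-point screening used 20 uM final (0.2% DMSO).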

AR (gene 367) [9] = target: AR (gene 367) (UniProt P10275); experiment: ACEA_AR_agonist_80hr: ACEA Biosciences xCELLigence Real-Time Cell Analysis on Androgen Receptor Agonism for Proliferation (AID 2283783);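 note: hits increase impedance growth signal above DMSO baseline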
Procedure, shortened: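 Androgen-driven proliferation in 22Rv1 cells is tracked as electrical impedance, taken 80 h after continuous exposure to compound (eight concentrations, 1:4 steps, maximum 100 uM final). Activity is fitted in the positive direction with DMSO as baseline.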

AR (gene 367) [10] = target: AR (gene 367) (UniProt P10275); experiment: ACEA_AR_antagonist_80hr: ACEA Biosciences xCELLigence Real-Time Cell Analysis on Androgen Receptor Antagonism for Proliferation (AID 2283787);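 note: 22Rv1 human prostate cancer cells with growth followed by electrical impedance; hits lower the impedance growth signal relative to DMSO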
Procedure, shortened: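 Growth-kinetic antagonist readout in 22Rv1 cells, taken 80 h after continuous compound exposure. Activity fitted as signal loss relative to DMSO negative control.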

[11] = target: Nucleoli Translocation, AR (gene 367) (UniProt P10275); experiment: UPITT_HCI_U2OS_AR_TIF2_Nucleoli_Agonist: University of Pittsburgh U2OS Androgen Receptor-Transcriptional Intermediary Factor 2 (AR-TIF2) Agonism High Content Imaging Assay for Nucleoli Translocation (AID 2283998)
Procedure, shortened: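 High-content images quantify nucleolar accumulation of RFP-fused AR in cells also expressing GFP-TIF2; the endpoint is fitted as signal gain versus DMSO controls across final concentrations of 0.195 to 50 uM.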

[12] = CCTE_Shafer_MEA_acute_spike_number: CCTE's Neural Acute Assay for Total Number of Spikes, Shafer Lab (AID 2284008; active = hit-call score of the fitted dose curve at least 0.9, where 1 is the maximum; inactive = score below 0.9)
Procedure, shortened: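 Using an adaptive detector set to 8x rms noise, spikes were counted in 40-min windows before and after compound addition (0.03-40 uM) to rat cortical networks at 37 C; the well-level change from baseline was analysed relative to DMSO.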

[13] = CCTE_Shafer_MEA_acute_firing_rate_mean: CCTE's Neural Acute Assay for Mean Firing Rate, Shafer Lab (AID 2284009; active = hit-call score of the fitted dose curve at least 0.9, where 1 is the maximum; inactive = score below 0.9;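 note: analyzed for loss of signal so actives lower firing rate relative to DMSO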)
Procedure, shortened: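 Percent change in well-mean firing rate was derived from extracellular spikes detected at 8x rms noise (300-5000 Hz band-pass) before and after a 40-min compound exposure. Cultures were primary rat cortical neurons, tested at 0.03-40 uM.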

[14] = CCTE_Shafer_MEA_acute_burst_number: CCTE's Neural Acute Assay for Single-Electrode Bursts, Shafer Lab (AID 2284013; active = hit-call score of the fitted dose curve at least 0.9, where 1 is the maximum; inactive = score below 0.9)
Procedure, shortened: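 Spontaneous network activity of primary rat cortical neurons was recorded extracellularly on microelectrode arrays at 37 C, with 40-min periods before and during exposure to 0.03-40 uM compound on DIV 13 or 15.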

[15] = CCTE_Shafer_MEA_acute_burst_duration_mean: CCTE's Neural Acute Assay for Mean Burst Duration, Shafer Lab (AID 2284014; active = hit-call score of the fitted dose curve at least 0.9, where 1 is the maximum; inactive = score below 0.9;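 note: hits are decreases in mean burst duration relative to DMSO controls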)
Procedure, shortened: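 Read-out is the per-well percent change in mean burst duration (first to last spike within a single-electrode burst) between 40-min recordings before and after compound. Cultures were primary rat cortical neurons on MEAs, dosed at 0.03-40 uM on DIV 13 or 15.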

[16] = CCTE_Shafer_MEA_acute_per_burst_spike_number_mean: CCTE's Neural Acute Assay for Average Number of Spikes Per Burst, Shafer Lab (AID 2284015; active = hit-call score of the fitted dose curve at least 0.9, where 1 is the maximum; inactive = score below 0.9;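 note: hits are decreases in mean spikes per burst versus baseline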)
Procedure, shortened: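 We recorded spontaneous network firing of rat cortical neurons for 40 min before and 40 min during exposure to compound at 0.03-40 uM, at 37 C. Spikes were detected adaptively at 8x rms noise, and the change in average spikes per burst was fitted against DMSO.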

[17] = CCTE_Shafer_MEA_acute_interburst_interval_mean: CCTE's Neural Acute Assay for Mean Interburst Interval, Shafer Lab (AID 2284016; active = hit-call score of the fitted dose curve at least 0.9, where 1 is the maximum; inactive = score below 0.9;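 note: percent change of mean interburst interval versus each well's own pre-dose baseline; curves fitted for decrease in interburst interval relative to DMSO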)
Procedure, shortened: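 MEA recording of spontaneous network bursting in primary rat cortical cultures; mean interburst interval was compared before and after a 40-min compound exposure (0.03-40 uM) and expressed as percent change, relative to DMSO.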

[18] = CCTE_Shafer_MEA_acute_burst_percentage_mean: CCTE's Neural Acute Assay for Percentage of Spikes in a Burst, Shafer Lab (AID 2284017; active = hit-call score of the fitted dose curve at least 0.9, where 1 is the maximum; inactive = score below 0.9)
Procedure, shortened: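 Compounds were tested at 0.03-40 uM on primary rat cortical neuron networks grown over microelectrodes, with at least three wells per compound. Spontaneous firing was recorded for 40 min before and 40 min after dosing, and the change in burst percentage was computed per well.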

[19] = system: Sodium/Iodide Symporter (NIS), SLC5A5 (gene 6528); experiment: CPHEA_Stoker_NIS_Inhibition_RAIU: CPHEA's Radioactive Iodide Uptake (RAIU) Assay for Sodium/Iodide Symporter (NIS) Inhibition, Stoker and Laws Labs (AID 2283841)
Procedure, shortened: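 Test chemicals, six concentrations from 0.001 to 100uM in 0.5% DMSO, were co-incubated with carrier-free 125I (final 329pM) on hNIS-HEK293T-EPA monolayers in pH 7.4 HEPES-buffered HBSS. Plates stood 2 hours at room temperature, then were washed cold and counted.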

[20] = CPHEA_Stoker_NIS_Cytotoxicity: Cytotoxicity Assessment for CPHEA's Radioactive Iodide Uptake (RAIU) Assay for Sodium/Iodide Symporter (NIS) Inhibition, Stoker and Laws Labs (AID 2283897)
Procedure, shortened: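 Viability in hNIS-HEK293T-EPA cells is scored as a drop in luciferase-detected ATP following 2-hour room-temperature exposure (0.001–100uM; triplicate wells, three cell passages), with DMSO as negative control.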

Cc1c([N+](=O)[O-])cccc1[N+](=O)[O-]
outcome [1]: inactive | outcome [2]: inactive

Cc1ccc([N+](=O)[O-])c([N+](=O)[O-])c1
AC50 [3]: active: 72.6 µM | outcome [2]: inactive | outcome [4]: inactive

Cc1ccc([N+](=O)[O-])cc1[N+](=O)[O-]
outcome [1]: inactive | outcome [5]: inactive | outcome [2]: inactive

O=[N+]([O-])OCC(CO[N+](=O)[O-])(CO[N+](=O)[O-])CO[N+](=O)[O-]
outcome [6]: inactive | outcome [7]: inactive | outcome [8]: inactive | outcome [2]: inactive | outcome [4]: inactive

C/C1=C2N=C(/C=C3N=C(/C(C)=C4\[N-][C@@](C)([C@@H]5N=C1[C@](C)(CCC(=O)NC[C@@H](C)OP(=O)([O-])O[C@H]1[C@@H](O)[C@@H](n6cnc7cc(C)c(C)cc76)O[C@@H]1CO)[C@H]5CC(N)=O)[C@@](C)(CC(N)=O)[C@@H]4CCC(N)=O)[C@@](C)(CC(N)=O)[C@@H]\3CCC(N)=O)C(C)(C)[C@@H]/2CCC(N)=O.[C-]#N.[Co+3]
outcome [2]: inactive | outcome [4]: inactive

Cc1cccc([N+](=O)[O-])c1[N+](=O)[O-]
AC50 (AR (gene 367) [9]): active: 26.1 µM | outcome (AR (gene 367) [10]): inactive | outcome [6]: inactive | outcome [11]: inactive | outcome [7]: inactive | outcome [8]: inactive | outcome [2]: inactive | outcome [4]: inactive

CC(C)OP(C)(=O)OC(C)C
outcome [1]: inactive | outcome [3]: inactive | outcome [12]: inactive | outcome [13]: inactive | outcome [2]: inactive | outcome [14]: inactive | outcome [15]: inactive | outcome [16]: inactive | outcome [17]: inactive | outcome [18]: inactive

N#CBr
AC50 [3]: active: 22.5 µM | outcome [2]: inactive | outcome [4]: inactive

COP(C)(=O)OC
outcome [1]: inactive | outcome [3]: inactive | outcome [19]: inactive | outcome [20]: inactive | outcome [2]: inactive | outcome [4]: inactive

CN(C)CCCl
AC50 [3]: active: 39.8 µM

[NH4+].[O-][Cl+3]([O-])([O-])[O-]
outcome [2]: inactive

O=[N+]([O-])[O-].[NH4+]
outcome [2]: inactive

O=[N+]([O-])c1cccc([N+](=O)[O-])c1
outcome [12]: inactive | outcome [13]: inactive | outcome [2]: inactive | outcome [4]: inactive | outcome [14]: inactive | outcome [15]: inactive | outcome [16]: inactive | outcome [17]: inactive | outcome [18]: inactive

Reference: PubChem BioAssay (EPA / NIEHS)
